Values quoted from earlier work as cited in patent US9289495B2, “Systems and methods for treatment of allergies and other indications” (Strategic Science & Technologies, LLC, priority 2011, dated 2016).

pKa: 9.3-9.4
Structure (SMILES): CN(C)CCC(c1ccccc1)c1ccccn1 (stereo not shown) [pheniramine]
